The list shows a part of the results, in another mix than the full data. Results filed as inconclusive are left out. The source made the active and inactive calls. Calls follow the shape of the dose curve; as a rule, active = well fitted inhibition curve with a large enough effect; inconclusive = small, poorly fitted or top-dose-only effect, or effect the other way; inactive = flat fitted curve, though single readings scatter.
Experiment: qHTS Assay for Inhibitors of the ERK Signaling Pathway using a Homogeneous Screening Assay; Stimulation with EGF;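 also: plate controls were stimulated vehicle wells for no effect and unstimulated vehicle basal for full effect; nearly all actives have a fitted effect of over 55% in size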
Details: HEK293-V1b, EGF-stimulated phospho-ERK AlphaScreen; at 11.5 µM (top of the series)

| SMILES | activity change, negative = inhibition |
| --- | --- |
| CN(CCCl)Cc1cc(Cl)c(NC2=NCCN2)c(Cl)c1 | inactive: 16.3% |

Reference: PubChem BioAssay AID1454 (National Center for Advancing Translational Sciences (NCATS), 2008)
